In paper PMC7723054 one finds binding signal data, which are given here for 23 molecules.

B1: PARIS_ID38 (structured_RNA)
RNA: GGGACGCUGUCCAGUCGGGUUUAUCUCAGGUGUACGAAGUUUCAGCCAUUUUCUGGCUGUGGAUGUACUAAAAUGUAUCCUAUUAUUCUCUGCCCUAAAAUGGCUGAAGCUUCGUGCAC
B2: hsa-mir-3619 (structured_RNA)
RNA: GGGAAGGAAUAAUCAUAUGGCAGGACACGGUGUACGAAGUUUCAGCCAGCCCGUGGUGGGGGCUGAAGCUUCGUGCAC
B3: hsa-mir-6081 (structured_RNA)
RNA: GGGAAAGAAGCGUUCGACCCUACCGUGCGGUGUACGAAGUUUCAGCCCCGUAGGACACCGAGGCUUAUGAAUAGGAGCUGAAGCUUCGUGCAC
B4: hsa-mir-1193 (structured_RNA)
RNA: GGGACAGUCGGACUUCUAACGGAAUAUUGGUGUACGAAGUUUCAGCGUGCACUUCAUUUACGAUGUAGGCUGAAGCUUCGUGCAC
B5: hsa-mir-3166 (structured_RNA)
RNA: GGGAAUUUUGCGGGGCGAGUGAACUUCGGGUGUACGAAGUUUCAGCUGCGUUAGGAUUUCUGUAUCAUCCUCCUAACGCAGCUGAAGCUUCGUGCAC
B6: hsa-mir-6757 (structured_RNA)
RNA: GGGACAACGUAGGACCACCGAACGUUCCGGUGUACGAAGUUUCAGCGAUGAAGAUUAAUCCCUAAUCCCCAACAGCUGAAGCUUCGUGCAC
B7: hsa-mir-7973-2 (structured_RNA)
RNA: GGGACCGUAAGUAGACAGCCAACGUUUUGGUGUACGAAGUUUCAGCUUACUCACCCUCUCAAAACCGAGACUCAGAGACGUUGGGUAAGCUGAAGCUUCGUGCAC
B8: hsa-mir-520e (structured_RNA)
RNA: GGGAACAGCGAAGUUGGGUUAGUGAAACGGUGUACGAAGUUUCAGCGUUUCUGUUGUCUGAAAGGAAAGAAAGGCUGAAGCUUCGUGCAC
B9: hsa-mir-4769 (structured_RNA)
RNA: GGGAACAGCCGUGCACACUAGACUUGCUGGUGUACGAAGUUUCAGCAUGAGCUAAAAAUCCCCAAGCUCUGCUGAAGCUUCGUGCAC
B10: hsa-mir-4515 (structured_RNA)
RNA: GGGACCUGGCCUGAGGCUGACUUACUUGGGUGUACGAAGUUUCAGCGCCCCAGGGCAGGGGCGCUGAAGCUUCGUGCAC
B11: hsa-mir-1185-2_1185-1 (structured_RNA)
RNA: GGGACAGGCGGUGCAAAUGCUCAUCAACGGUGUACGAAGUUUCAGCAUGUUCACUUGAUUAAUGGCGAAUAUGCUGAAGCUUCGUGCAC
B12: hsa-mir-1236 (structured_RNA)
RNA: GGGAAUGUGAGUCAACUUCAAGGUACCCGGUGUACGAAGUUUCAGCGGGGAUGGACUGGAAGUGGGCAGCAUGGAGCUGACCUUCAUCAUGGCUUGGCCAACAUAAUGCCUCGCUGAAGCUUCGUGCAC
B13: hsa-mir-544b (structured_RNA)
RNA: GGGAUAUUGUAGAACUGUUAGCUGCACCGGUGUACGAAGUUUCAGCAUUUCUGUAGCUCUGAGACUAGACCUGCUGAAGCUUCGUGCAC
B14: hsa-mir-223 (structured_RNA)
RNA: GGGAACCCAAGUAGGCGUAACGUUACCAGGUGUACGAAGUUUCAGCAGUUGGACACUCCAUGUGGUAGAGUGUCGCUGAAGCUUCGUGCAC
B15: hsa-mir-1281 (structured_RNA)
RNA: GGGAAGUUCCAACGGGUUAAAAUACGUAGGUGUACGAAGUUUCAGCGUGAGUGUCUCUUGUCGCGCUGAAGCUUCGUGCAC
B16: hsa-mir-4285 (structured_RNA)
RNA: GGGAAAACCGAUUGUGCGACUGUUUAGAGGUGUACGAAGUUUCAGCUCAUAAAUAUUUUAAGGAAUGACCCGGCCCUGGGGGCUGAAGCUUCGUGCAC
B17: hsa-mir-4450 (structured_RNA)
RNA: GGGAGACACCGAGCUCAACUGAAAUACGGGUGUACGAAGUUUCAGCGUGAGCGCAGGUCUUUGGCACGCUGAAGCUUCGUGCAC
B18: hsa-mir-3141 (structured_RNA)
RNA: GGGAAAAGACCACGGGCGUAAUGUUGUAGGUGUACGAAGUUUCAGCAGGAGGGUCCGCUGAAGCUUCGUGCAC
B19: hsa-mir-4431 (structured_RNA)
RNA: GGGACAAUCUCCGGCACGUGAACUUCAAGGUGUACGAAGUUUCAGCAGGUUUAUGACUGGGCAUUUCUCACCCAAUGCCCAAUAUUGAACUUGCUGAAGCUUCGUGCAC
B20: hsa-mir-3117 (structured_RNA)
RNA: GGGAACAAAACGGCGAGCACCGUUGAUAGGUGUACGAAGUUUCAGCAUAUAAGGGAAGGCAUUAUAGGCUGAAGCUUCGUGCAC
B21: hsa-mir-548am (structured_RNA)
RNA: GGGCACCUGAUGAACUCGGGAACCAUGGGGUGUACGAAGUUUCAGCUUUGCCGUCGAAAAUAAUGGCAAAGCUGAAGCUUCGUGCAC
B22: hsa-mir-32 (structured_RNA)
RNA: GGGAACGCGAGAAGACCACUUGAUCUAUGGUGUACGAAGUUUCAGCGUUGCAUGUUGUCACGGCCUCAAUGCAAUGCUGAAGCUUCGUGCAC
B23: hsa-mir-4675 (structured_RNA)
RNA: GGGAGGUAAAUUACACAGACCCUGUCCCGGUGUACGAAGUUUCAGCCCCUGGUCAGACUCUCCGGGGGCUGAAGCUUCGUGCAC

The list shows a part of the results.

One assay has as its target U1A (Homo sapiens, UniProt P09012). The experiment in a line: FOREST: bead pull-down of RNA structure library v1, barcode microarray; U1A/LIN28A: 20 mM HEPES pH 7.5, 80 mM KCl, 20 mM NaCl, 10% glycerol, 2 mM DTT, 0.1 ug/uL BSA, 4 C; BG4/CIRBP/DHX36: 10 mM Tris-HCl pH 7.5, 100 mM KCl (or LiCl),; high values mean tight binding.
In turn, B1 came in with a binding signal of 1.8 z-score.

With B2, the binding signal came out at 0.127 z-score.

B3 gave a binding signal of 0.136 z-score.

B4 came in with a binding signal of 0.136 z-score.

Molecule B5 displayed a binding signal of 0.133 z-score.

B6 had a binding signal of 0.134 z-score.

As for B7, the binding signal was 0.125 z-score.

B8 showed a binding signal of 0.142 z-score.

Molecule B9 had a binding signal of 0.136 z-score.

B10 displayed a binding signal of 0.142 z-score.

On to B11, for which the binding signal came out at 0.123 z-score.

For B12, the binding signal was determined as 0.147 z-score.

Molecule B13 had a binding signal of 0.126 z-score.

Molecule B14 gave a binding signal of 0.14 z-score.

In the case of B15, the binding signal turned out to be 0.125 z-score.

B16 gave a binding signal of 0.122 z-score.

The molecule B17 showed a binding signal of 0.123 z-score.

With B18, the binding signal is 0.143 z-score.

Molecule B19 came in with a binding signal of 1.79 z-score.

For B20, the binding signal is 0.144 z-score.

In turn, B21 yielded a binding signal of 0.15 z-score.

B22 yielded a binding signal of 0.135 z-score.

For the molecule B23, the binding signal was determined as 0.147 z-score.

A further assay has as its target T1, LIN28A (human?, UniProt Q9H9Z2 1-209).
T1 sequence: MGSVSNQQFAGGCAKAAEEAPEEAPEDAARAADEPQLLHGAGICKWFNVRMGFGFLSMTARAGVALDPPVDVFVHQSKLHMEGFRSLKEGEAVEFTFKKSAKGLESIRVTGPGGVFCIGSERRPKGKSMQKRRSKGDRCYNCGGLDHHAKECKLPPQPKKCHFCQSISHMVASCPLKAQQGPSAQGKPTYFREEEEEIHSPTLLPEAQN
The assay is described as above.
As for B1, the binding signal stood at 0.58 z-score.

Turning to B2, the binding signal is -0.0822 z-score.

Molecule B3 showed a binding signal of -0.265 z-score.

B4 had a binding signal of 0.36 z-score.

For B5, the binding signal is 0.953 z-score.

On to B6, for which the binding signal was -0.0247 z-score.

B7 registered a binding signal of 0.157 z-score.

For the molecule B8, the binding signal is 1.05 z-score.

The molecule B9 showed a binding signal of 0.826 z-score.

Regarding B10, the binding signal is -1.95 z-score.

In turn, B11 returned a binding signal of -0.196 z-score.

The molecule B12 returned a binding signal of 0.61 z-score.

On to B13, for which the binding signal worked out at 0.336 z-score.

B14 registered a binding signal of -0.471 z-score.

On to B15, for which the binding signal was determined as 0.55 z-score.

Molecule B16 came in with a binding signal of 1.44 z-score.

For the molecule B17, the binding signal was 1.09 z-score.

In turn, B18 returned a binding signal of 1.2 z-score.

Take B19: the binding signal is -0.0682 z-score.

With B20, the binding signal was -0.154 z-score.

With B21, the binding signal was -3.56 z-score.

B22 had a binding signal of -1.3 z-score.

Molecule B23 showed a binding signal of -0.0237 z-score.

The target in the next assay is T2, CIRBP (Homo sapiens, UniProt Q14011 1-172).
T2 sequence: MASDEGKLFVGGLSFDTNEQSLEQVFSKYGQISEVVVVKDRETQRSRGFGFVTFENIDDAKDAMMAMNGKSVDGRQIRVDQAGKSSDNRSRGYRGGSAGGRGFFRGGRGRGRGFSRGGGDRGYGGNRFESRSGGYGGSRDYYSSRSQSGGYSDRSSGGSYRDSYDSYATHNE
The description is as above.
For the molecule B1, the binding signal was -0.253 z-score.

In the case of B2, the binding signal turned out to be 0.359 z-score.

On to B3, for which the binding signal is -0.213 z-score.

For B4, the binding signal was 0.0517 z-score.

In the case of B5, the binding signal is -0.565 z-score.

The molecule B6 displayed a binding signal of -0.835 z-score.

Take B7: the binding signal stood at 0.346 z-score.

B8 returned a binding signal of 2.11 z-score.

As for B9, the binding signal is -0.274 z-score.

Consider B10, for which the binding signal is -1.06 z-score.

As for B11, the binding signal was -0.877 z-score.

B12 had a binding signal of -0.272 z-score.

B13: the binding signal is -0.0825 z-score.

B14 returned a binding signal of -0.78 z-score.

B15 displayed a binding signal of 0.653 z-score.

Molecule B16 yielded a binding signal of -0.141 z-score.

B17 gave a binding signal of -0.324 z-score.

For the molecule B18, the binding signal came out at 3.35 z-score.

Turning to B19, the binding signal came out at 0.306 z-score.

The molecule B20 gave a binding signal of -0.505 z-score.

As for B21, the binding signal is -1.8 z-score.

Molecule B22 came in with a binding signal of -0.459 z-score.

In turn, B23 showed a binding signal of 0.28 z-score.

In the next assay the target is T3, DHX36 (Homo sapiens, UniProt Q9H2U1 1-1008).
T3 sequence: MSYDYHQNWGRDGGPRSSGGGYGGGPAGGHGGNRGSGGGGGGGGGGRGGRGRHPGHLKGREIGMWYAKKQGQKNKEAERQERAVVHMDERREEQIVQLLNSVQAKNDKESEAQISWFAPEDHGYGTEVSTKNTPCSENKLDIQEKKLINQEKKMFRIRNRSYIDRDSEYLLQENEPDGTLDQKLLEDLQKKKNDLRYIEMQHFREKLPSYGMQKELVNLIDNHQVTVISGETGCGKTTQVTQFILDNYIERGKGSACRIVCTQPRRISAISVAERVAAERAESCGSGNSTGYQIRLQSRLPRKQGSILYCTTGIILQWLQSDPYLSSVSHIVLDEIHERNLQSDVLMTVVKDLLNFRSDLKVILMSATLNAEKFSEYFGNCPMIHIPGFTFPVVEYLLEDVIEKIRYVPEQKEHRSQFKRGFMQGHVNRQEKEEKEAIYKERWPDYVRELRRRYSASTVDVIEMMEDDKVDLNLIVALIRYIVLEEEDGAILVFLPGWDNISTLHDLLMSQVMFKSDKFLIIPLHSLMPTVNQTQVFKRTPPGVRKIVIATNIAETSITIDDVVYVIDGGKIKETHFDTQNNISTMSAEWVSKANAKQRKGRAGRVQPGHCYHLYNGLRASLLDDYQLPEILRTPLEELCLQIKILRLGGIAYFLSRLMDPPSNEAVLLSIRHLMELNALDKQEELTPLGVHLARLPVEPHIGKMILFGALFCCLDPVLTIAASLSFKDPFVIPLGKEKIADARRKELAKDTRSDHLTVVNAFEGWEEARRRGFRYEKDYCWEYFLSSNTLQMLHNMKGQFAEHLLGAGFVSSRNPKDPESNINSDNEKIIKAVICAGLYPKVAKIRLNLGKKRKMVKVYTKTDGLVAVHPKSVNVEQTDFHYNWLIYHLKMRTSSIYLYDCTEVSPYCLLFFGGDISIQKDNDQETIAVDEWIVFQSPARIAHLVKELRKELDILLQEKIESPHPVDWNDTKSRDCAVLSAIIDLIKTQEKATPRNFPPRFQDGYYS
Described as above.
The molecule B1 returned a binding signal of -0.115 z-score.

Molecule B2 had a binding signal of 0.121 z-score.

For B3, the binding signal was -1.38 z-score.

In the case of B4, the binding signal was -0.0169 z-score.

Molecule B5 came in with a binding signal of 1.48 z-score.

With B6, the binding signal is -0.97 z-score.

Molecule B7 had a binding signal of 0.42 z-score.

In the case of B8, the binding signal was 0.294 z-score.

For the molecule B9, the binding signal is 0.148 z-score.

Molecule B10 displayed a binding signal of -0.594 z-score.

The molecule B11 displayed a binding signal of -0.398 z-score.

In the case of B12, the binding signal amounted to 1.58 z-score.

B13 came in with a binding signal of -1.19 z-score.

Molecule B14 displayed a binding signal of -0.687 z-score.

Regarding B15, the binding signal was 0.556 z-score.

In the case of B16, the binding signal was found to be 1.02 z-score.

B17 gave a binding signal of -0.594 z-score.

Regarding B18, the binding signal came to 0.745 z-score.

The molecule B19 came in with a binding signal of -1.22 z-score.

B20 registered a binding signal of -1.1 z-score.

On to B21, for which the binding signal is -0.711 z-score.

B22 showed a binding signal of -1.51 z-score.

The molecule B23 had a binding signal of -0.0451 z-score.
